According to patent US8541471B2, “Water-soluble strontium salts for use in treatment of cartilage and/or bone conditions” (Osteologix A/S, priority 2003, dated 2013):

Assays:
[1] = rat, in vivo, po

For “strontium alpha-ketoglutarate [α-ketogluterate]”, the “SOLUBILITY AT 40° C. pH 7.5” value was 3809 mg/L, the “SOLUBILITY AT ROOM TEMPERATURE (22-24° C.) pH 7.5” value was 2252 mg/L and the AUC [1] was 9000 mg·min/L.
